In US12258310B2, “Solid peroxyalphahydroxycarboxylic acid generation compositions and the use thereof” (ECOLAB USA INC., priority 2021, dated 2025):

Experiment: Physical property (vapor pressure, odor) of alphacarboxylic acids and peroxyalphacarboxylic acids
Assay type: physicochemical

O=C(CO)OO
Odor: Odorless
